Results from PubChem BioAssay AID686996 (Broad Institute, 2013).
The list shows a part of the results, in another mix than the full data. Some results for these compounds are left out of this collection, so the calls shown say nothing about other tests. The source made the active and inactive calls.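 How the source made its calls: active means mean inhibition across replicates at least about 35%, with every replicate also reaching that limit (limit read from the data); inconclusive means only one of the two criteria met; inactive means neither criterion met.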

By UniProt entry, the sequences of proteins in these tests, tags left out. Residues count along the entry.
UniProt P55212, 24-179 limits assumed: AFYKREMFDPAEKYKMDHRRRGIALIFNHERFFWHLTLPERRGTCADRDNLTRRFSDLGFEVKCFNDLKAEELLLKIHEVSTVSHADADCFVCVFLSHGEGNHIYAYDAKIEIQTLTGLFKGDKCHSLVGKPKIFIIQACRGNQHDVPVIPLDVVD
UniProt P55212, 194-293 limits assumed: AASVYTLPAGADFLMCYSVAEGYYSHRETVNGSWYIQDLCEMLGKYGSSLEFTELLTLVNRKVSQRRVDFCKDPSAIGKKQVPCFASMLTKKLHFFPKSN

Each compound was assayed against Caspase-6 (Homo sapiens) (UniProt P55212) (assay: human caspase-6 inhibitors, primary screen, biochemical, VEID-R110 fluorescence, single point, set 2 (AID 686996;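 further: 0% = median of neutral control wells and 100% = no fluorescence left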)). Details: purified caspase-6, Z-VEID-R110 cleavage fluorescence; at 12.5 µM; stronger effect = higher value.

Compound	inhibition
O=C(NCC1(N2CCCCC2)CCCCC1)c1cccc(Cl)c1	inactive: -1.63%
COc1cccc(C(=O)NCC2(N3CCCCC3)CCCCC2)c1	inactive: 1.95%
COc1ccc(Cl)cc1C(=O)NCC1(N(C)C)CCCCC1	inactive: -3.33%
COc1cc(C(=O)NCC2(N(C)C)CCCCC2)c([N+](=O)[O-])cc1OC	inactive: 0.108%
CN(C)C1(CNC(=O)c2ccc(Br)cc2)CCCCC1	inactive: -2.61%
CC(C)Oc1ccc(C(=O)NCC2(N(C)C)CCCCC2)cc1	inactive: -1.91%
O=C(OCCN1CCCC1)C(O)(c1ccccc1)c1ccccc1	inactive: -0.39%
C=C(C)C#CC(O)(C(=O)OC1CCN(C)CC1)c1ccccc1 (stereo not given)	inactive: -0.316%
COc1ccc(Br)c(C(=O)NCC2(N3CCCCC3)CCCCC2)c1	inactive: -1.41%
Cc1ccc(C(=O)NCC2(N3CCCCC3)CCCCC2)cc1	inactive: -3.75%
CCN(CC)CC(C)C(C)OC(=O)C(O)(c1ccccc1)c1ccccc1 (stereo not given)	inactive: 2.48%
COc1cc(SC)ccc1C(=O)NCC1(N(C)C)CCCCC1	inactive: -2.36%
CN1[C@@H]2CC[C@H]1CC(OC(=O)C(O)(c1ccccc1)c1ccccc1)C2 (stereo not given in full)	inactive: -4.06%
O=C(NCC1(N2CCCCC2)CCCCC1)c1cc([N+](=O)[O-])ccc1Cl	inactive: -0.079%
Cc1cc(C(=O)NCC2(N3CCCCC3)CCCCC2)ccc1[N+](=O)[O-]	inactive: -0.117%
C=CCN1CCN(CCOC(=O)C(O)(c2ccccc2)c2ccccc2)CC1	inactive: -0.766%
O=C(NCC1(N2CCCCC2)CCCCC1)c1cc(F)c(F)cc1Cl	inactive: -0.14%
Cc1ccccc1C(=O)NCC1(N2CCCCC2)CCCCC1	inactive: -1.97%
CN(C)C1CCCC1OC(=O)C(O)(c1ccccc1)c1ccccc1 (stereo not given)	inactive: -2.33%
CN(C)c1ccc(C(=O)NCC2(N(C)C)CCCCC2)cc1	inactive: -0.714%
